Target: human skin chymase (Homo sapiens, UniProt P23946)
Assay: Enzyme-catalyzed hydrolysis assay (chymase inhibition)
Format: biochemical
Conditions: read-out: IC50 (μM) Chymase; 10 nM enzyme, 0.7 mM Suc-Ala-Ala-Pro-Phe-pNa, pH 8.0, 37° C., 30 minutes

Sequences of proteins named here, by UniProt entry; tags and fusion partners are left off. Residues count along the entry.
UniProt P23946, 22-247 limits assumed: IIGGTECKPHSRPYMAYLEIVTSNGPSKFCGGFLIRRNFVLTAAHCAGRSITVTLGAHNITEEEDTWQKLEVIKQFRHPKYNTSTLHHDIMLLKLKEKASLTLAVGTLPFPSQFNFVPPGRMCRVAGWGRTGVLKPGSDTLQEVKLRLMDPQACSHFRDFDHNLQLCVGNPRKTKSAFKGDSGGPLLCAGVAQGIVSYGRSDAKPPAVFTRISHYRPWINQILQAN

SMILES	IC50 [µM]
CP(=O)(O)C(C(=O)Nc1ccc2ccccc2c1)c1c(C(=O)N2CCN(C(=O)OCc3ccccc3)CC2)sc2ccccc12 (stereo not shown)	0.33
O=C(Nc1cc2ccccc2cc1C(=O)N1CCC(c2ccncc2)C1)C(c1cccc2ccccc12)P(=O)(O)O (stereo not shown)	1.35
COC(=O)CCCCCNCc1cc2ccccc2cc1NC(=O)C(c1cccc2ccccc12)P(=O)(O)O (stereo not shown)	2.4
O=C(Nc1cc2ccccc2cc1CNC1CCC(O)CC1)C(c1cccc2ccccc12)P(=O)(O)O (stereo not shown)	5.62

Second part, the compound after the results:

IC50 [µM]	SMILES
0.34	Cc1ccc(/C=C/NC(=O)C(c2csc3ccc(Cl)cc23)P(=O)(O)O)cc1 (stereo not shown)
8.3	O=C(Nc1ccc2c(c1)OCO2)C(c1cccc2ccccc12)P(=O)(O)O (stereo not shown)
0.32	O=C(Nc1ccc2ccccc2c1)C(c1csc2ccc(Cl)cc12)P(=O)(O)CCCc1cccc2ccccc12 (stereo not shown)

From patent US7459444B2, “Inhibitors of chymase” (Janssen Pharmaceutica N.V., priority 2004, dated 2008)
